Laboratory results reported in article PMC7759402 (Journal of Analytical Methods in Chemistry, 2020).

Test: in vivo
Conditions: male, Sprague-Dawley, rat, po, 10 mg/kg

## Cc1nc2c(-c3cnc(N)nc3)nc(N3CCOCC3)nc2n1C(C)C [VS-5584]
  AUC(0-inf): 929 ± 228 ng·h/mL
  AUC(0-t): 865 ± 192 ng·h/mL
  CL/F: 188 mL/min/kg
  Vd/F: 54.1 ± 29.6 L/kg
  half-life: 3.28 ± 1.37 h
